PMC8175350, “Drug repurposing screens identify chemical entities for the development of COVID-19 interventions” (Nature Communications, 2021)

Legend:
Calu-3 cells [1] = details: human
HeLa-ACE2 cells = assay: Uninfected HeLa-ACE2 24 h live/dead cytotoxicity counter screen
Calu-3 cells [2] = assay: Uninfected Calu-3 48 h Cell-Titer Glo cytotoxicity counter screen; details: read-out: Calu-3 uninfected cytotoxicity CC50 GeoMean; unrounded geometric mean

Substance: Oligomycin A
- Calu-3 uninfected cytotoxicity Sinf Average (Calu-3 cells [1]): -91%
- HeLa-ACE2 uninfected cytotoxicity Sinf Average (HeLa-ACE2 cells; curve-fit effect at infinite concentration, average): -100%
- CC50 (HeLa-ACE2 cells; read-out: HeLa-ACE2 uninfected cytotoxicity CC50 GeoMean, unrounded geometric mean): > 36 µM
- CC50 (Calu-3 cells [2]): > 29.9 µM
